Assay results: US11618753B2 (priority 2018, dated 2023)

Sequences of proteins named here, by UniProt entry; tags and fusion partners are left off. A change or cut given only in a name is not applied to a line headed by its entry.
UniProt O00329: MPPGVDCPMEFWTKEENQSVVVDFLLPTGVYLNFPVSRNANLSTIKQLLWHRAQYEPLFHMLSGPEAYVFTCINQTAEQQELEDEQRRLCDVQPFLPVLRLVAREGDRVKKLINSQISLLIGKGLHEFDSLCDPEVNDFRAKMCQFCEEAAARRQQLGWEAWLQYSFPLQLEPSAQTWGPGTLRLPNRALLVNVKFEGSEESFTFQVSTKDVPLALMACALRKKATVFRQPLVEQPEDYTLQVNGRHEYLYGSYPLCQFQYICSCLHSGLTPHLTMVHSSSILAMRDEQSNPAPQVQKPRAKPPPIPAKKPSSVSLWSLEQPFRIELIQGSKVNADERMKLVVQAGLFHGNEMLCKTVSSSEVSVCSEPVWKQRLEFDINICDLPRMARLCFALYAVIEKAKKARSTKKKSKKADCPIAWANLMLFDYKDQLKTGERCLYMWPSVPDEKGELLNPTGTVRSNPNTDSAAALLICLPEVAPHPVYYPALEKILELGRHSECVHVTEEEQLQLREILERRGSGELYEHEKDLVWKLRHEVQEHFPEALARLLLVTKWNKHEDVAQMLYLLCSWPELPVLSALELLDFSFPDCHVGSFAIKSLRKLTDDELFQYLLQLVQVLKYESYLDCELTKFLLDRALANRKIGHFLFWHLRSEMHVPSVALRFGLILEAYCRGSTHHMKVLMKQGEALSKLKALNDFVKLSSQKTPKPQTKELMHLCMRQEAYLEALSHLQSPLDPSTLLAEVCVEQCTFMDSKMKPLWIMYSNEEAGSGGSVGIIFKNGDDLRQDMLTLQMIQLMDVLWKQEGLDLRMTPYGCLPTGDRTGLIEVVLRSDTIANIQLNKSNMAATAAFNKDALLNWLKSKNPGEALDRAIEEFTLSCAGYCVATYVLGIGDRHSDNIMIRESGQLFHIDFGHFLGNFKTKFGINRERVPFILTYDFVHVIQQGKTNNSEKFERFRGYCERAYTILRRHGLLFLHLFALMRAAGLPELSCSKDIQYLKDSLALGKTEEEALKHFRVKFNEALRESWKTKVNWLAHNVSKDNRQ

molecular target: GST-tagged PIK3Cδ in complex with PIK3R1 (Homo sapiens (Human), UniProt O00329); test: biochemical

SMILES | IC50 [µM]
CC(C)CC(=O)N1C[C@H](F)[C@H](NC(=O)c2cc(-c3cc(CN4CCC(F)(F)CC4)c4c(N)ncnn34)ccc2Cl)C1 [Example 1146, 5-{4-amino-5-[(4,4-difluoropiperidin-1-yl)methyl]pyrrolo[2,1-f][1,2,4]triazin-7-yl}-2-chloro-N-[(3R,4S)-4-fluoro-1-(3-methylbutanoyl)pyrrolidin-3-yl]benzamide] | > 15
Nc1ncnn2c(-c3ccc(Cl)c(C(=O)N[C@@H]4CN(C(=O)C5CCC(F)(F)CC5)C[C@@H]4F)c3)cc(CN3CCC(F)(F)CC3)c12 [Example 1147, 5-{4-amino-5-[(4,4-difluoropiperidin-1-yl)methyl]pyrrolo[2,1-f][1,2,4]triazin-7-yl}-2-chloro-N-[(3R,4S)-1-(4,4-difluorocyclohexanecarbonyl)-4-fluoropyrrolidin-3-yl]benzamide] | > 15
Nc1ncnn2c(-c3ccc(Cl)c(C(=O)N[C@@H]4CN(C(=O)C5CCC(F)(F)C5)C[C@@H]4F)c3)cc(CN3CCC(F)(F)CC3)c12 (stereo partly drawn) [Example 1148, 5-{4-amino-5-[(4,4-difluoropiperidin-1-yl)methyl]pyrrolo[2,1-f][1,2,4]triazin-7-yl}-2-chloro-N-[(3R,4S)-1-(3,3-difluorocyclopentanecarbonyl)-4-fluoropyrrolidin-3-yl]benzamide] | > 15
Nc1ncnn2c(-c3ccc(Cl)c(C(=O)N[C@@H]4CN(C(=O)C5(F)CC5)C[C@@H]4F)c3)cc(CN3CCC(C(F)(F)F)CC3)c12 [Example 1149, 5-(4-amino-5-{[4-(trifluoromethyl)piperidin-1-yl]methyl}pyrrolo[2,1-f][1,2,4]triazin-7-yl)-2-chloro-N-[(3R,4S)-4-fluoro-1-(1-fluorocyclopropanecarbonyl)pyrrolidin-3-yl]benzamide] | > 5
CC(CC(=O)N1C[C@H](F)[C@H](NC(=O)c2cc(-c3cc(CN4CCC(C(F)(F)F)CC4)c4c(N)ncnn34)ccc2Cl)C1)C(F)(F)F (stereo partly drawn) [Example 1150, 5-(4-amino-5-{[4-(trifluoromethyl)piperidin-1-yl]methyl}pyrrolo[2,1-f][1,2,4]triazin-7-yl)-2-chloro-N-[(3R,4S)-4-fluoro-1-(4,4,4-trifluoro-3-methylbutanoyl)pyrrolidin-3-yl]benzamide] | > 15
Nc1ncnn2c(-c3ccc(Cl)c(C(=O)N[C@@H]4CN(C(=O)C5CC(F)C5)C[C@@H]4F)c3)cc(CN3CCC(C(F)(F)F)CC3)c12 (stereo partly drawn) [Example 1151, 5-(4-amino-5-{[4-(trifluoromethyl)piperidin-1-yl]methyl}pyrrolo[2,1-f][1,2,4]triazin-7-yl)-2-chloro-N-[(3R,4S)-4-fluoro-1-(3-fluorocyclobutanecarbonyl)pyrrolidin-3-yl]benzamide] | > 15
CC(C)(F)C(=O)N1C[C@H](F)[C@H](NC(=O)c2cc(-c3cc(CN4CCC(C(F)(F)F)CC4)c4c(N)ncnn34)ccc2Cl)C1 [Example 1152, 5-(4-amino-5-{[4-(trifluoromethyl)piperidin-1-yl]methyl}pyrrolo[2,1-f][1,2,4]triazin-7-yl)-2-chloro-N-[(3R,4S)-4-fluoro-1-(2-fluoro-2-methylpropanoyl)pyrrolidin-3-yl]benzamide] | > 15
CC(O)(CC(=O)N1C[C@H](F)[C@H](NC(=O)c2cc(-c3cc(CN4CCC(C(F)(F)F)CC4)c4c(N)ncnn34)ccc2Cl)C1)C(F)(F)F (stereo partly drawn) [Example 1153, 5-(4-amino-5-{[4-(trifluoromethyl)piperidin-1-yl]methyl}pyrrolo[2,1-f][1,2,4]triazin-7-yl)-2-chloro-N-[(3R,4S)-4-fluoro-1-(4,4,4-trifluoro-3-hydroxy-3-methylbutanoyl)pyrrolidin-3-yl]benzamide] | > 15
CC(C)CC(=O)N1C[C@H](F)[C@H](NC(=O)c2cc(-c3cc(CN4CCC(C(F)(F)F)CC4)c4c(N)ncnn34)ccc2Cl)C1 [Example 1154, 5-(4-amino-5-{[4-(trifluoromethyl)piperidin-1-yl]methyl}pyrrolo[2,1-f][1,2,4]triazin-7-yl)-2-chloro-N-[(3R,4S)-4-fluoro-1-(3-methylbutanoyl)pyrrolidin-3-yl]benzamide] | > 15
Nc1ncnn2c(-c3ccc(Cl)c(C(=O)N[C@@H]4CN(C(=O)C5CC(F)(F)C5)C[C@@H]4F)c3)cc(CN3CCC(C(F)(F)F)CC3)c12 [Example 1157] | > 15
Nc1ncnn2c(-c3ccc(Cl)c(C(=O)N[C@@H]4CN(C(=O)c5ccccc5F)C[C@@H]4F)c3)cc(CN3CCC(C(F)(F)F)CC3)c12 [Example 1158, 5-(4-amino-5-{[4-(trifluoromethyl)piperidin-1-yl]methyl}pyrrolo[2,1-f][1,2,4]triazin-7-yl)-2-chloro-N-[(3R,4S)-4-fluoro-1-(2-fluorobenzoyl)pyrrolidin-3-yl]benzamide] | > 15
C[C@@](O)(C(=O)N1C[C@H](F)[C@H](NC(=O)c2cc(-c3cc(CN4CCC(C(F)(F)F)CC4)c4c(N)ncnn34)ccc2Cl)C1)C(F)(F)F [Example 1159, 5-(4-amino-5-{[4-(trifluoromethyl)piperidin-1-yl]methyl}pyrrolo[2,1-f][1,2,4]triazin-7-yl)-2-chloro-N-[(3R,4S)-4-fluoro-1-[(2R)-3,3,3-trifluro-2-hydroxy-2-methylpropanoyl]pyrrolidin-3-yl]benzamide] | > 15
Nc1ncnn2c(-c3ccc(Cl)c(C(=O)N[C@@H]4CN(C(=O)C5CCC(F)(F)CC5)C[C@@H]4F)c3)cc(CN3CCC(C(F)(F)F)CC3)c12 [Example 1160, 5-(4-amino-5-{[4-(trifluoromethyl)piperidin-1-yl]methyl}pyrrolo[2,1-f][1,2,4]triazin-7-yl)-2-chloro-N-[(3R,4S)-1-(4,4-difluorocyclohexanecarbonyl)-4-fluoropyrrolidin-3-yl]benzamide] | > 15
Nc1ncnn2c(-c3ccc(Cl)c(C(=O)N[C@@H]4CN(C(=O)C5CCC(F)(F)C5)C[C@@H]4F)c3)cc(CN3CCC(C(F)(F)F)CC3)c12 (stereo partly drawn) [Example 1161, 5-(4-amino-5-{[4-(trifluoromethyl)piperidin-1-yl]methyl}pyrrolo[2,1-f][1,2,4]triazin-7-yl)-2-chloro-N-[(3R,4S)-1-(3,3-difluorocyclopentanecarbonyl)-4-fluoropyrrolidin-3-yl]benzamide] | > 15
CC(C(=O)N1C[C@H](F)[C@H](NC(=O)c2cc(-c3cc(CN4CCC(C(F)(F)F)CC4)c4c(N)ncnn34)ccc2Cl)C1)C(F)(F)F (stereo partly drawn) [Example 1162, 5-(4-amino-5-{[4-(trifluoromethyl)piperidin-1-yl]methyl}pyrrolo[2,1-f][1,2,4]triazin-7-yl)-2-chloro-N-[(3R,4S)-4-fluoro-1-(3,3,3-trifluoro-2-methylpropanoyl)pyrrolidin-3-yl]benzamide] | > 15
CCC(O)(C(=O)N1C[C@H](F)[C@H](NC(=O)c2cc(-c3cc(CN4CCC(C(F)(F)F)CC4)c4c(N)ncnn34)ccc2Cl)C1)C(F)(F)F (stereo partly drawn) [Example 1163, 5-(4-amino-5-{[4-(trifluoromethyl)piperidin-1-yl]methyl}pyrrolo[2,1-f][1,2,4]triazin-7-yl)-2-chloro-N-[(3R,4S)-4-fluoro-1-[2-hydroxy-2-(trifluoromethyl)butanoyl]pyrrolidin-3-yl]benzamide] | > 15
Nc1ncnn2c(-c3cccc(C(=O)N[C@@H]4CN(C(=O)C5CC(F)C5)C[C@@H]4F)c3)cc(CN3CC(F)(F)C3)c12 (stereo partly drawn) [Example 1174, 3-{4-amino-5-[(3,3-difluoroazetidin-1-yl)methyl]pyrrolo[2,1-f][1,2,4]triazin-7-yl}-N-[(3R,4S)-4-fluoro-1-(3-fluorocyclobutanecarbonyl)pyrrolidin-3-yl]benzamide] | 0.928
Nc1ncnn2c(-c3cccc(C(=O)N[C@@H]4CN(C(=O)C5CC(F)C5)C[C@@H]4F)c3)cc(CN3CC(F)(F)C3)c12 (stereo partly drawn) [Example 1175, 3-{4-amino-5-[(3,3-difluoroazetidin-1-yl)methyl]pyrrolo[2,1-f][1,2,4]triazin-7-yl}-N-[(3R,4S)-4-fluoro-1-(3-fluorocyclobutanecarbonyl)pyrrolidin-3-yl]benzamide] | 0.94
COc1ncc(-c2cc(C(F)(F)F)c3c(N)ncnn23)cc1C(=O)N[C@@H]1CN(C(=O)CC(O)(C(F)(F)F)C(F)(F)F)C[C@@H]1F [Example 1220, 5-[4-amino-5-(trifluoromethyl)pyrrolo[2,1-f][1,2,4]triazin-7-yl]-N-[(3R,4S)-4-fluoro-1-[4,4,4-trifluoro-3-hydroxy-3-(trifluoromethyl)butanoyl]pyrrolidin-3-yl]-2-methoxypyridine-3-carboxamide] | > 15
COc1ncc(-c2cc(CN3CCC(F)(F)CC3)c3c(N)ncnn23)cc1C(=O)N[C@@H]1CN(C(=O)c2ccncc2)C[C@@H]1F [Example 1237, 5-{4-amino-5-[(4,4-difluoropiperidin-1-yl)methyl]pyrrolo[2,1-f][1,2,4]triazin-7-yl}-N-[(3R,4S)-4-fluoro-1-(pyridine-4-carbonyl)pyrrolidin-3-yl]-2-methoxypyridine-3-carboxamide] | > 15
COc1ncc(-c2cc(CN3CCC(F)(F)CC3)c3c(N)ncnn23)cc1C(=O)N[C@@H]1CN(C(=O)c2ccc(Cl)cc2)C[C@@H]1F [Example 1238, 5-{4-amino-5-[(4,4-difluoropiperidin-1-yl)methyl]pyrrolo[2,1-f][1,2,4]triazin-7-yl}-N-[(3R,4S)-1-(4-chlorobenzoyl)-4-fluoropyrrolidin-3-yl]-2-methoxypyridine-3-carboxamide] | > 15
COc1ncc(-c2cc(CN3CCC(F)(F)CC3)c3c(N)ncnn23)cc1C(=O)N[C@@H]1CN(C(=O)c2cccc(F)c2)C[C@@H]1F [Example 1239, 5-{4-amino-5-[(4,4-difluoropiperidin-1-yl)methyl]pyrrolo[2,1-f][1,2,4]triazin-7-yl}-N-[(3R,4S)-4-fluoro-1-(3-fluorobenzoyl)pyrrolidin-3-yl]-2-methoxypyridine-3-carboxamide] | > 15
COc1ncc(-c2cc(CN3CCC(F)(F)CC3)c3c(N)ncnn23)cc1C(=O)N[C@@H]1CN(C(=O)c2ccccc2Cl)C[C@@H]1F [Example 1240, 5-{4-amino-5-[(4,4-difluoropiperidin-1-yl)methyl]pyrrolo[2,1-f][1,2,4]triazin-7-yl}-N-[(3R,4S)-1-(2-chlorobenzoyl)-4-fluoropyrrolidin-3-yl]-2-methoxypyridine-3-carboxamide] | > 15
